# Screening data deposited in PubChem BioAssay by National Center for Advancing Translational Sciences (NCATS).
# Compounds with a hit are over-represented: about 16% of the library has one in this group of screens.
# TDP1 block – inhibitors of human tyrosyl-DNA phosphodiesterase TDP1. Q9NUW8. recombinant TDP1, AlphaScreen DNA substrate cleavage. Potency, µM (doses to about 130 µM), for inactives: top-dose activity change, negative = inhibition, actives largely listed as inhibitors. actives 0.28% (n = 350,000). AID 485290; further: potency means the concentration at half of the fitted maximal effect; on the % scale 0 is the no-effect control and ±100 the full control effect; nearly all actives have a fitted effect of over 40% in size
#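 Recombinant E. coli-expressed Tdp1 (1 nM) preincubated with compound 15 min at RT, then 5'-biotin/3'-phosphotyrosine-FITC DNA substrate (15 nM) added for 5 min. AlphaScreen beads (10 ug/ml) added, 10 min RT; tyrosine-FITC cleavage read as signal loss.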
# uPA surface inh – inhibitors of cell surface uPA generation; cell surface uPA generation assay, qHTS; Potency, µM (series often up to 38.3 µM), for the others: at the highest dose activity change, negative = inhibition, hits mostly inhibitors; actives 0.31% (n = 330,000); AID 540303; active means well fitted inhibition curve with a large enough effect; inconclusive means small, poorly fitted or top-dose-only effect; inactive means no such curve, though single readings can be large or run the other way; tested in mouse RAW 264.7 cells; further: potency means the concentration at half of the fitted maximal effect; on the % scale 0 is the no-effect control and ±100 the full control effect; nearly all actives have a fitted effect of over 55% in size
# DT40 TDP1 CPT – growth inhibition of DT40 Tdp1-/-;hTDP1 cells with camptothecin (screen for TDP1 inhibitors). Potency, µM (titrated, usually from 46.2 µM), without a hit: top-dose activity change, negative = growth inhibition, actives largely listed as inhibitors. chicken DT40 Tdp1-/-;hTDP1 cells + 20 nM CPT, ATP luminescence, 48 h. actives 12% (n = 420,000); further: potency means the concentration at half of the fitted maximal effect; on the % scale 0 is the no-effect control and ±100 the full control effect; nearly all actives have a fitted effect of over 55% in size
#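 Cell growth measured by CellTiter-Glo luminescence after a minimum 48 h, 37 C compound exposure with 20 nM CPT in Tdp1-knockout DT40 cells stably expressing hTDP1, seeded 400/well; qHTS titration format.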
# miR-21 reporter – raises the signal of a miR-21 reporter | HeLa miR-21 FLuc reporter, luciferase, 48 h | Potency, µM (doses to about 38.3 µM), without a hit: at the top dose reporter change, positive = more light | 340,000 tested, under 10 active | AID 2288; active = well fitted rising curve with a large enough effect; inconclusive = small, poorly fitted or top-dose-only effect; inactive = no such curve, though single readings can be large or run the other way;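 note: % of control where 0% means no effect; miR-21 action dims this reporter so a rising signal means less miR-21 action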
#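 HeLa cells endogenously expressing miR-21, stably carrying CMV-driven firefly luciferase with a downstream miR-21 binding site, 2000 cells/well. Titrations up to approximately 40 uM, 48 hours; luciferase luminescence read.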
# TDP1 cell noCPT – qHTS for Inhibitors of human tyrosyl-DNA phosphodiesterase 1 (TDP1): qHTS in cells in absence of CPT; DT40 Tdp1-/- hTDP1 cells, no CPT, ATP luminescence, 48 h; Potency, µM (top dose mostly 46.2 µM), for the others: at the highest dose activity change, negative = growth inhibition, most hits filed as inhibitors; actives 15% (n = 420,000); AID 686978, 2013; further: potency means the concentration at half of the fitted maximal effect; on the % scale 0 is the no-effect control and ±100 the full control effect; nearly all actives have a fitted effect of over 55% in size
#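 Growth kinetics read by CellTiter-Glo luminescence after ≥48 hr at 37 °C. Cells: DT40 Tdp1-/- stably carrying human TDP1, 400 per well, compound exposure in the absence of CPT (DMSO vehicle).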
# * hit, by the source's call; ? = inconclusive; · = no result; [ ] = another dose, or the depositor's remark. Unless noted, the call rests on the fitted dose curve; in most records, active means well fitted curve in the direction sought with a large enough effect; inconclusive means small, poorly fitted or top-dose-only effect, or another doubt; inactive means no such curve, though single readings can be large; an effect the other way counts as inactive or inconclusive.
nr | compound | TDP1 block | TDP1 cell noCPT | DT40 TDP1 CPT | uPA surface inh | miR-21 reporter
1 | Cc1nc2ccccn2c1C(=O)CSc1ccccc1Cl | 4% | 16µM* | 16µM* | -3% | -3%
2 | N#CCCC1CCCC=C1N(Cc1ccccc1)C(=O)C(Cl)Cl (configuration not stated) | · | -3% | 0% | 12% | -1%
3 | CNc1nc(C)nc(N/N=C/c2ccccc2)n1 | -2% | -6% | -8% | -10% | -28%
4 | CCOc1ccc2oc(=O)cc(CN3CCN(Cc4ccccc4)CC3)c2c1 | · | 23µM* | ? | 1% | 1%
5 | CCOc1ccc2oc(=O)cc(CN3CCN(C(=O)c4ccco4)CC3)c2c1 | 1% | 0% | -2% | 1% | -12%
6 | CCOc1ccc2oc(=O)cc(CN3CCN(Cc4ccc(C)cc4)CC3)c2c1 | 0% | 15µM* | 23µM* | · | -4%
7 | Cc1ccc2oc(=O)cc(CN3CCN(Cc4ccccc4)CC3)c2c1 | · | -9% | -22% | -9% | -3%
8 | CC(C)(C)C1CCc2c(sc3ncn(N)c(=N)c23)C1 (configuration not stated) | 8% | 6.5µM* | 16µM* | -10% | 8%
9 | CCN(C(=O)COC(=O)C12CC3CC(CC(NC(C)=O)(C3)C1)C2)C1CCCCC1 | -8%[0.505 µM] | 21µM* | ? | -2% | ·
10 | CC(=O)NC12CC3CC(C1)CC(C(=O)OCC(=O)NC(=O)c1cccn1C)(C3)C2 | -2% | -5% | -18% | 4% | -5%
11 | COCCn1c(=O)c(-c2cccs2)nc2cnc(N3CCOCC3)nc21 | · | 29% | -1% | · | ·
12 | O[C@@H]1CN(Cc2ccc(-n3cccn3)cc2)CC[C@H]1N1CCN(c2ccccc2F)CC1 | · | 3.7µM* | 13µM* | ? | 14%
13 | COc1ccc(-n2nnnc2-c2cccc(OC)c2)cc1 | 0% | 0.58µM* | 0.82µM* | -11% | 13%
14 | Cc1ccc(C)c(N(CC(=O)NC2CCCC2)C(=O)c2oc(C(C)(C)C)cc2C)c1 | 0% | 9.2µM* | 8.2µM* | 7% | 17%
15 | Cc1cc(C(C)(C)C)oc1C(=O)N(CC(=O)NC1CCCC1)Cc1ccccc1 | 3% | 13µM* | 15µM* | 0% | 1%

# Two records picked at random from those above:
nr | compound | TDP1 block | TDP1 cell noCPT | DT40 TDP1 CPT | uPA surface inh | miR-21 reporter
9 | CCN(C(=O)COC(=O)C12CC3CC(CC(NC(C)=O)(C3)C1)C2)C1CCCCC1 | -8%[0.505 µM] | 21µM* | ? | -2% | ·
8 | CC(C)(C)C1CCc2c(sc3ncn(N)c(=N)c23)C1 (configuration not stated) | 8% | 6.5µM* | 16µM* | -10% | 8%

# Further records.
nr | compound | TDP1 block | TDP1 cell noCPT | DT40 TDP1 CPT | uPA surface inh | miR-21 reporter
16 | Cc1cc(C(C)(C)C)oc1C(=O)N(CC(=O)NC1CCCC1)Cc1ccc(F)cc1 | -3% | ? | 21µM* | 9% | -7%
17 | Cn1cccc1C(=O)NC1CCCCC1 | · | -11% | -14% | 0% | ·
18 | COc1ccccc1C(=O)Nc1nnc(SCC(=O)NCc2ccco2)s1 | 5% | ? | ? | ? | -24%
19 | COc1ccc(C(=O)CCS(=O)(=O)c2ccc(C)cc2)cc1 | 0% | 2.3µM* | 2.6µM* | -4% | 4%
20 | Cc1ccc(NC(=O)CCS(=O)(=O)c2ccc(Br)cc2)c(C)c1 | 9% | 2% | -4% | · | -1%
21 | Cc1ccc(S(=O)(=O)Cc2cc(F)c([N+](=O)[O-])cc2[N+](=O)[O-])cc1 | 17% | 2.9µM* | 3.7µM* | -5% | ?
22 | CCOC(=O)c1ccc([N+](=O)[O-])c(CS(=O)(=O)c2ccc(Cl)cc2)c1 | · | -24% | -21% | -14% | -4%
23 | Cc1ccc(C(=O)CCS(=O)(=O)c2ccc(Br)cc2)cc1 | 4% | 5.2µM* | 5.2µM* | -4% | -4%
24 | Cc1ccc(S(=O)(=O)CCC(=O)c2cccc([N+](=O)[O-])c2)cc1 | 6% | 2.6µM* | 2.1µM* | -11% | ?
25 | Cc1ccc2c(CC(=O)NCC(C)(C)N3CCOCC3)coc2c1 | 8% | -4% | -2% | 0% | -2%
26 | Cc1ccc2c(c1)sc1nncn12 | · | 5% | 5% | · | ·
27 | O=C(c1ccc([N+](=O)[O-])o1)N1CCN(Cc2ccccc2)CC1 | 5% | 26µM* | 15µM* | ? | 9%
28 | Cc1c(C(=O)N2CCN(Cc3ccccc3)CC2)oc2c1C(=O)CCC2 | 0% | -18% | -11% | -4% | -7%
29 | Cc1ccc(C(=O)N2CCN(Cc3ccccc3)CC2)o1 | 3% | -2% | -6% | -3% | -6%
30 | CN(Cc1ccccc1)C(=O)c1ccc([N+](=O)[O-])o1 | 0% | ? | 23µM* | ? | 26%

# Entries 1 to 4 of the list above:
nr | compound | TDP1 block | TDP1 cell noCPT | DT40 TDP1 CPT | uPA surface inh | miR-21 reporter
1 | Cc1nc2ccccn2c1C(=O)CSc1ccccc1Cl | 4% | 16µM* | 16µM* | -3% | -3%
2 | N#CCCC1CCCC=C1N(Cc1ccccc1)C(=O)C(Cl)Cl (configuration not stated) | · | -3% | 0% | 12% | -1%
3 | CNc1nc(C)nc(N/N=C/c2ccccc2)n1 | -2% | -6% | -8% | -10% | -28%
4 | CCOc1ccc2oc(=O)cc(CN3CCN(Cc4ccccc4)CC3)c2c1 | · | 23µM* | ? | 1% | 1%

# Next entries:
nr | compound | TDP1 block | TDP1 cell noCPT | DT40 TDP1 CPT | uPA surface inh | miR-21 reporter
31 | Cc1cc2oc(C(=O)N3CCN(Cc4ccccc4)CC3)c(C)c2cc1C | · | ? | 26µM* | 3% | ·
32 | Cc1ccc(/C(O)=C2/C(=O)C(=O)N(CC(=O)O)C2c2ccc([N+](=O)[O-])cc2)cc1 (configuration not stated) | · | ? | 13% | 1% | -23%
33 | COC(=O)c1ccc(C(NC(=O)OCc2ccccc2)/C(F)=C/[C@@H](C)C(=O)NCc2cc(C)on2)cc1 (some centres not stated) | 4% | · | · | · | ·
34 | CCCNC(=O)Cc1c(C)n(C(=O)c2ccc(Cl)cc2)c2ccc(OC)cc12 | 3% | ? | 21µM* | 3% | 9%
35 | COC(=O)CCNC(=O)Cc1c(C)n(C(=O)c2ccc(Cl)cc2)c2ccc(OC)cc12 | 2% | ? | ? | 3% | 5%
36 | Nc1ccc2c(c1)Cc1cc(N)c(Cl)cc1-2 | · | -6% | 3% | -8% | ·
37 | Nc1cc2c(cc1N)-c1ccccc1C2 | · | 16µM* | ? | -12% | ·
38 | COc1ccc(-c2cn(-c3ccc(C)cc3C)c(=O)[nH]2)cc1OC | 4% | ? | 15µM* | -16% | 9%
39 | COc1ccc(C2=NO[C@@H]3C(=O)N(c4ccc(C)cc4C)C(=O)[C@H]23)cc1OC | 5% | ? | 26µM* | 2% | -3%
40 | O=C(Nc1ccc2oc(=O)ccc2c1)c1ccc2ccccc2c1 | 11% | ? | -29% | -1% | -12%
41 | CCOC(=O)C1CCN(C(=O)CCc2nnc3ccc(NCCCN4CCCC4=O)nn23)CC1 | 5% | -19% | 7% | 11% | -1%
42 | C=CCOc1c(Cl)cc(Cl)cc1S(=O)(=O)NCCO | · | -2% | 11% | -19% | ·
43 | O=C1C2=C(c3ccccc31)[N+](=O)C1CCCCC1N2[O-] (configuration not stated) | 3% | 15µM* | 23µM* | -1% | -33%
